Legend:
JAK1 [1] = molecular target: T1, JAK1 (Homo sapiens (Human), UniProt P23458); test: JAK1 PathHunter assay (prolactin response, U2OS cell line); format: cell-based; details: PathHunter U2OS cell line expressing JAK1, prolactin challenge; read-out: JAK-1 IC50
JAK1 [2] = molecular target: T1, JAK1; test: JAK1 isolated enzyme high ATP Caliper endpoint assay; format: biochemical; details: 2.5 mM ATP, read-out: JAK-1 IC50;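 also: enzyme at 10 nM preincubated with inhibitor 30 min, then kinase reaction 120 min at room temperature, peptide phosphorylation read by microfluidic mobility shift with fluorescence, inhibition relative to HPE and ZPE plate controls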
Description: JAK1 Isolated Enzyme High ATP Caliper Endpoint Assay;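 also: enzyme at 10 nM preincubated with inhibitor 30 min, then kinase reaction 120 min at room temperature, peptide phosphorylation read by microfluidic mobility shift with fluorescence, inhibition relative to HPE and ZPE plate controls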
4 mM stock solutions of test compounds are prepared and serially diluted in 100% DMSO. A standard curve using PF-00956980 (commercially available from Sigma Aldrich) at a top concentration of 4 mM is also prepared. High percentage effect (HPE) is defined by 500 μM PF-00956980 and 0% effect (ZPE) is defined by 100% DMSO. Greiner 384 well plates are prepared containing 400 nl of serially diluted compound, standard and HPE/ZPE. Final top assay concentration is 80 μM as the assay dilution factor is fifty.
JAK1 enzyme (Invitrogen) stock solution is made up at 5.2 μM in sterile water. […]
Assays are performed in Greiner polypropylene 384 well plates. […] Data is generated by the shift in mobility of non-phosphorylated peptide substrates and phosphorylated products by electrophoresis within a chip and detected via LED induced fluorescence. Data is analysed using LabChip EZReader software which calculates the relative heights of the substrate and product peaks and reports product/product plus substrate peak ratio. Test compound data are subsequently expressed as percentage inhibition defined by HPE and ZPE values for each plate. […]

Sequences of proteins named here, by UniProt entry; tags and fusion partners are left off. A change or cut given only in a name is not applied to a line headed by its entry.
UniProt P23458: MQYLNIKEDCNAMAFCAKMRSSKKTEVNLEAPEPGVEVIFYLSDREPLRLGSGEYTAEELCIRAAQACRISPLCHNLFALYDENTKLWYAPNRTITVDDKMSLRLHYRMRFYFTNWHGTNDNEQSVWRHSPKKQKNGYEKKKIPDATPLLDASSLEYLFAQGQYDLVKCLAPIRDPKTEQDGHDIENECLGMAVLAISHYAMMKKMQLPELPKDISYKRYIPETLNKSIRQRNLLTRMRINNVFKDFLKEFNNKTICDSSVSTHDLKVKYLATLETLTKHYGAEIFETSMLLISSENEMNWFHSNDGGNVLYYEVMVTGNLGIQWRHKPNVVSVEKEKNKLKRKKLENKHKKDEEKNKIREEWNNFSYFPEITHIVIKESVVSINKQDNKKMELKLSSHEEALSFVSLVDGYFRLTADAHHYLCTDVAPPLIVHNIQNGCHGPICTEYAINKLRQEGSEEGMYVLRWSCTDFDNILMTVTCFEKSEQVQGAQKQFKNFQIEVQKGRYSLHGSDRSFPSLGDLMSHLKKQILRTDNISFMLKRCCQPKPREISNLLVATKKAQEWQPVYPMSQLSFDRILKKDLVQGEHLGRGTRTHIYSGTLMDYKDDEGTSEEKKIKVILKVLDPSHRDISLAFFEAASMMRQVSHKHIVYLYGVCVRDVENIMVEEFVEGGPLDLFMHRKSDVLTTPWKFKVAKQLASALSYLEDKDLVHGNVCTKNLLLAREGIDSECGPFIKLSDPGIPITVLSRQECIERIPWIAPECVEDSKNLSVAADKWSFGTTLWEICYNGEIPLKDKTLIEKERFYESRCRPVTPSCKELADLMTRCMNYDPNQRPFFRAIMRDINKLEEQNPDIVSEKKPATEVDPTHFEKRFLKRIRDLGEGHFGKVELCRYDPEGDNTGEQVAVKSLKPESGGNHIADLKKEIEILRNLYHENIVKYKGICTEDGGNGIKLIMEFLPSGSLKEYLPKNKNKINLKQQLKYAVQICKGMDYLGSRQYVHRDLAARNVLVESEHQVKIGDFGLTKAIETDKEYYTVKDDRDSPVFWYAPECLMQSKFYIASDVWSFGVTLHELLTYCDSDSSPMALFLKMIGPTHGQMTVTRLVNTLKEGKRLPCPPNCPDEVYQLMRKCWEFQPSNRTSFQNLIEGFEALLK

CCc1cc(O)c(F)cc1-c1ccc2c(-c3nc4c([nH]3)CCN(C(=O)c3cnc(N5CCCCC5)cn3)C4)n[nH]c2c1 [Example 4, {2-[6-(2-Ethyl-5-fluoro-4-hydroxy-phenyl)-1H-indazol-3-yl]-1,4,6,7-tetrahydro-imidazo[4,5-c]pyridin-5-yl}-(5-piperidin-1-yl-pyrazin-2-yl)-methanone]
IC50 (JAK1 [1]): 75 nM
IC50 (JAK1 [2]): 5.4 nM
